Measurements: PMC9035832, “Synthesis and Evaluation of a Non-Peptide Small-Molecule Drug Conjugate Targeting Integrin αVβ3” (Frontiers in Chemistry, 2022)

Assays:
integrin α5β1 = integrin α5β1 (Homo sapiens, UniProt P05556+P08648); experiment: ELISA-like competitive integrin binding assay (fibronectin-coated plates); conditions: read-out: Integrin α5β1 IC50; isolated extracellular domain of human integrin α5β1, ligand fibronectin; Cilengitide as reference on all plates
integrin αVβ3 = integrin αVβ3 (Homo sapiens, UniProt P05106+P06756); experiment: ELISA-like competitive integrin binding assay (vitronectin-coated plates); conditions: read-out: Integrin αVβ3 IC50; isolated extracellular domain of human integrin αVβ3, ligand vitronectin; Cilengitide as reference on all plates

- IC50 (integrin α5β1): > 10 µM
- IC50 (integrin αVβ3): 8.29 µM
SMILES: O=C(N[C@@H](Cc1ccc(OCCCCNc2ncccn2)cc1)C(=O)O)OCc1ccccc1
